Reference: ChEMBL document CHEMBL1130315 (J Med Chem, 1997)

Protein sequences, listed by entry. Tags and fused reporters are not part of them.
UniProt P23977, whole entry: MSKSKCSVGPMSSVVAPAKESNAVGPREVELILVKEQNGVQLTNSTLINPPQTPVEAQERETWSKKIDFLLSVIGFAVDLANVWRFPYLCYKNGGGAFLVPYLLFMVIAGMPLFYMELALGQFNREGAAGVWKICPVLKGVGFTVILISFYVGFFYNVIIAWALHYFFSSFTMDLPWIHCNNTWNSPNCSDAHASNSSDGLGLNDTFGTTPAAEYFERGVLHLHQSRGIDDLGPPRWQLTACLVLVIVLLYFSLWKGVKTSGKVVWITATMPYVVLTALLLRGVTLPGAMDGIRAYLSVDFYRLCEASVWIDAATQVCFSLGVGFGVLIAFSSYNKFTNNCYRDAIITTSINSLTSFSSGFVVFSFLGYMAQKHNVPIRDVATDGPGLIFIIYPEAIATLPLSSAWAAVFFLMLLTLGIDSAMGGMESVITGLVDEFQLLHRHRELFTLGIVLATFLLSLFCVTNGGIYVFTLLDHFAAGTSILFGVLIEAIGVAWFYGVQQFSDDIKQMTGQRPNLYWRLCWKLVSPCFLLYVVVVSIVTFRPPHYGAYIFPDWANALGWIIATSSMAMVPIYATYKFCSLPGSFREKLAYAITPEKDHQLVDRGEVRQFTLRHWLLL

Biological target: Sodium-dependent dopamine transporter (Rattus norvegicus, UniProt P23977)
Test: Binding affinity was evaluated using [3H]WIN-35428 binding to dopamine transporter (DAT) in rat caudate-putamen
Type: tissue-based
Procedure, shortened: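 Caudate-putamen homogenate from male Sprague-Dawley rats, washed three times, in modified Krebs-HEPES buffer pH 7.4 on ice. Triplicates preincubated 5 min with compound (0.01 nM–100 μM), then 1.5 nM [3H]WIN 35,428 (final) for 1 h on ice.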

CC1CN(CCCn2c3ccccc3c3ccccc32)CC(C)N1CCCCCCN=C=S (stereo unspecified)
IC50: 86.7 nM
